# According to US20170095445A1 (priority 2012, published 2017):
# Legend:
# [1] = system: Cl2 inhalational lung injury (CILI); assay: Murine Cl2 exposure model (30 minute exposure), lung histology; details: 30 minute exposure to 400 ppm Cl2, 24 hours post exposure
# [2] = system: Cl2 inhalational lung injury (CILI); assay: Severe CILI model (60 minute exposure), lung histology; details: 60 minute exposure to 400 ppm Cl2, 2 and 6 hours post exposure, 24 hours post exposure
# [3] = system: Cl2 inhalational lung injury (CILI); assay: Survival study after exposure to a severe CILI model; details: 60 minute exposure to 400 ppm Cl2
# [4] = system: Cl2 inhalational lung injury (CILI); assay: Murine Cl2 exposure model, R-901 12 hourly regimen, pulmonary MPO and histology; details: 400 ppm Cl2 30 minutes, 30 mg/kg/dose IP 12 hourly from 15 minutes post exposure, 24 hours
# [5] = in HPCD 2 and 6 hours post exposure, 6, 20 or 40 mg/kg/dose
# [6] = in saline 2 and 6 hours post exposure, 3, 10 or 30 mg/kg/dose
smiles,measurement,setting,value
CC1(C)CC(CO[N+](=O)[O-])C(C)(C)N1O (stereo not shown),CILI as exemplified by histology scores,"[1]; IP in HPCD 2 and 6 hours post exposure, 4, 12, 40, 80 mg/kg/dose",dose-dependently attenuated CILI
same,CILI as exemplified by histology scores,"[2]; 1, 3, 10 or 30 mg/kg/dose",attenuated CILI
same,survival of the animals,[3]; [5],improved the survival of the animals
same,weight loss (body mass),[3]; [5],reduced loss and improved recovery of body mass
NC(CS)C(=O)N1CCCC1C(=O)NC(CS)C(=O)O (stereo not shown),CILI as exemplified by histology scores,"[1]; in saline 2 and 6 hours post exposure, 3, 10, 30, 80 mg/kg/dose",dose-dependently attenuated CILI
same,CILI as exemplified by histology scores,"[2]; 3, 10, 30 or 80 mg/kg/dose",attenuated CILI
same,survival of the animals,[3]; [6],improved the survival of the animals
same,weight loss (body mass),[3]; [6],reduced loss and improved recovery of body mass
"CC(=O)NC(CS)C(=O)N1CCCC1C(=O)NC(CS)C(N)=O (stereo not shown) [R-901, 1-(2-acetamido-3-mercaptopropanoyl)-N-(1-amino-3-mercapto-1-oxopropan-2-yl) pyrrolidine-2-carboxamide]",reduction of histological damage relative to placebo,[4]; n.s.,20%
same,reduction of the elevation in pulmonary MPO relative to placebo,[4]; p<0.0001,50%
